This note sets out measurements from US11660306B2, “Treatment of Rett syndrome” (Cold Spring Harbor Laboratory, priority 2014, dated 2023).

By UniProt entry, the sequences of proteins in these tests, tags left out.
UniProt P18031, whole entry: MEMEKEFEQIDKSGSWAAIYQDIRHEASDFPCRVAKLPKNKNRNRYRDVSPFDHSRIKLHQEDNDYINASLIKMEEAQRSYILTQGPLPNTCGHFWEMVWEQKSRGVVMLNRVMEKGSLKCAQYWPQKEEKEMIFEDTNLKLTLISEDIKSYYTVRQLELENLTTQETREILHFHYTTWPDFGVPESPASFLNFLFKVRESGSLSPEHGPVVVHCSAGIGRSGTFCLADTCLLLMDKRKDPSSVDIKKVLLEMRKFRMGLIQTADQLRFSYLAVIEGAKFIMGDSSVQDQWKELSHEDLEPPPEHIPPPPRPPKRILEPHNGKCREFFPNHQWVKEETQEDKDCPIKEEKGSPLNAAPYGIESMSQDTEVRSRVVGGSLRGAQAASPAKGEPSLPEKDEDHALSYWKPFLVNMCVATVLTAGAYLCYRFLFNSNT

Type in all cases: biochemical
In one experiment the target is PTP1B405 (Homo sapiens, UniProt P18031). The experiment can be described thus: Triterpene inhibition of PTP1B405 (Table 2). To be noted: read-out: Ki (μM), PTP1B405.
For another experiment, the target named is PTP1B321 (Homo sapiens, UniProt P18031). The experiment can be described thus: Triterpene inhibition of PTP1B321 (Table 2). To be noted: read-out: Ki (μM), PTP1B321.
A further experiment concerns PTP1B. As to the kind of experiment: Reversibility of PTP1B inhibition by triterpenes (Table 2).

On to `CC1(C)OC2CC(=O)OCC23C1CC(=O)C1(C)C3CCC2(C)C(c3ccoc3)OC(=O)C3OC321` (stereo not drawn), for which the Ki amounted to 6 µM on PTP1B405 and 9 µM on PTP1B321. Further, the Reversibility entry with PTP1B is listed as “Reversible”.

One may read the Ki as a measure of affinity in units of concentration, obtained from inhibition or displacement.
